Patent publication US12104201B2, “Engineered gyri-like mutein aptamers, and related methods” (CROSSLIFE TECHNOLOGIES INC., priority 2019, dated 2024)

Protein sequences, listed by entry. Tags and fused reporters are not part of them.
UniProt Q8KFZ1, entry or part of it E36R/H40Y/Y106W: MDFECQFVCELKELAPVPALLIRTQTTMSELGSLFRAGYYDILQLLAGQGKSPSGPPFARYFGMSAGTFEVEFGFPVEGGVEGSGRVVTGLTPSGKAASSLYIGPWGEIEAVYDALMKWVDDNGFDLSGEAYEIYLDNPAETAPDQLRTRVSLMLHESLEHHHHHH
UniProt Q929T5, entry or part of it E185L: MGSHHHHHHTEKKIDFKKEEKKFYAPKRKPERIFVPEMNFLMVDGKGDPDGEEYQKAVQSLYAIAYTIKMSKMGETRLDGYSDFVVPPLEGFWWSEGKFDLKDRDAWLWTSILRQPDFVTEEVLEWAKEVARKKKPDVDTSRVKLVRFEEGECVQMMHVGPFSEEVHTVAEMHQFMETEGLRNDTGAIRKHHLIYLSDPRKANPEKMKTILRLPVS
UniProt Q929T5, entry or part of it E157A/E185L: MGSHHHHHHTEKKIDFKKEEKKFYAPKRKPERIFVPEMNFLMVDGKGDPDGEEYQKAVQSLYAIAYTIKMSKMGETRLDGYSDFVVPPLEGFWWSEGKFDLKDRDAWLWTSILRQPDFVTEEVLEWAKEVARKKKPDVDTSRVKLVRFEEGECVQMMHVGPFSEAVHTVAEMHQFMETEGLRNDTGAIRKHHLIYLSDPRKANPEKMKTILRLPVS

What was measured:
[1] = system: bacterial growth; ampicillin pre-incubated with SAV2435; experiment: Ex vivo drug-metabolizing aptamer screening (bacterial growth in ampicillin pre-incubated with protein); conditions: 5 μg/ml or 500 μg/ml ampicillin
[2] = system: bacterial growth; ampicillin pre-incubated with CTR107; experiment: as above; conditions: 5 μg/ml or 500 μg/ml ampicillin
[3] = target: C. tepidium CTR107 variant TRIP (E36R, H40Y, Y106W; SEQ ID NO:24) (Chlorobaculum tepidum, UniProt Q8KFZ1, E36R/H40Y/Y106W); format: binding; conditions: FAM
[4] = target: L. innocua LIN2189 variant E185L (SEQ ID NO:30) (Listeria innocua, UniProt Q929T5, E185L); format: binding; conditions: FAM
[5] = target: L. innocua LIN2189 variant DUB (E157A, E185L; SEQ ID NO:32) (Listeria innocua, UniProt Q929T5, E157A/E185L); format: binding; conditions: FAM

Compound | growth inhibition [1] | growth inhibition [2] | fluorescence quenching [3] | changes in fluorescence quenching compared to LIN2189 WT [4] | decrease in fluorescence [5]
CC1(C)S[C@@H]2[C@H](NC(=O)[C@H](N)c3ccccc3)C(=O)N2[C@H]1C(=O)O [Ampicillin] | substantially inhibited growth | substantially inhibited growth |  |  | 
5(6)-Carboxyfluorescein [FAM] |  |  | loss of quenching properties | no changes | ~40 fold
